The subject of this series is T1, Peptide 1.
T1 sequence: CCSLCCNPACTGCY

This is an account of results in patent publication US8507447, “Treatments of gastrointestinal disorders” (dated 2013).

For the substance Potato acid phosphatase, the Dephosphorylation of Peptide 1, Dephospho (%), potato acid phosphatase pH 5 was determined as 22.1% and the Dephosphorylation of Peptide 1, Remaining (%), potato acid phosphatase pH 5 is 77.8%.
